Columns and labels:
[1] = molecular target: Sodium-dependent serotonin transporter (Homo sapiens, UniProt P31645); test: Inhibition of human recombinant 5HT transporter
[2] = molecular target: Sodium-dependent noradrenaline transporter (Homo sapiens, UniProt P23975); test: Inhibition of human recombinant norepinephrine transporter

By UniProt entry, the sequences of proteins in these tests, tags left out.
UniProt P31645, whole entry: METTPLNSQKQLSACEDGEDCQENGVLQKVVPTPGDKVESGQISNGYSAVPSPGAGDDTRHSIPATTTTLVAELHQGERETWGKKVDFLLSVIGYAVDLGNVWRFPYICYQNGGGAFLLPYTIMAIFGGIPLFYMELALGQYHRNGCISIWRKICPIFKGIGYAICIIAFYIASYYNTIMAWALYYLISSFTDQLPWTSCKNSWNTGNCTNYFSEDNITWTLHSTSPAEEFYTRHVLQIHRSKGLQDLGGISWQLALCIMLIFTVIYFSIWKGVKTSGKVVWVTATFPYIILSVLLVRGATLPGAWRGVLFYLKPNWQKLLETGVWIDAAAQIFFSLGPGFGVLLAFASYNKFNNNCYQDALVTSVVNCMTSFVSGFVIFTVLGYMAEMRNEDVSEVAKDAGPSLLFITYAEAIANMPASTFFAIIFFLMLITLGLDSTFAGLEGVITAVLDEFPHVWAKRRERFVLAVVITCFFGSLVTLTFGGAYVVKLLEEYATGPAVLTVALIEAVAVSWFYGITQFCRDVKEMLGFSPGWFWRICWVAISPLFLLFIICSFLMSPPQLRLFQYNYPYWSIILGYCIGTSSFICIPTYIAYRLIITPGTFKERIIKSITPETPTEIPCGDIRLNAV
UniProt P23975, whole entry: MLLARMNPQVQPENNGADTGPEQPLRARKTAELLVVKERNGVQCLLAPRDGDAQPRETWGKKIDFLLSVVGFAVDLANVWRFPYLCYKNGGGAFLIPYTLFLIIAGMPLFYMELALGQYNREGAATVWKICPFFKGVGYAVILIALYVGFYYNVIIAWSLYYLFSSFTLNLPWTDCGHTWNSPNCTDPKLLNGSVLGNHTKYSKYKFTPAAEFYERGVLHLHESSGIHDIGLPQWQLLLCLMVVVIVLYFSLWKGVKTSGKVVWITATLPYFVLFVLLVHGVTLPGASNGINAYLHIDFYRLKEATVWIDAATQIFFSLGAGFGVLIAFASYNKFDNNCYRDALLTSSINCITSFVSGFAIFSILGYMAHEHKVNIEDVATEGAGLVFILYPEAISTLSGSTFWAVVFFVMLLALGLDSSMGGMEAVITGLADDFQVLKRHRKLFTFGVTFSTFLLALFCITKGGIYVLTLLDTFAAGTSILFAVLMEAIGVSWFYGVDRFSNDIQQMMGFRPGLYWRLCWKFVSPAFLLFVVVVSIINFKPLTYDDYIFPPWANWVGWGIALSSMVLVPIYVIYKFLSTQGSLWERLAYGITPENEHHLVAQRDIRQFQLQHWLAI

SMILES: CN[C@H]1Cc2ccccc2[C@@H](c2ccc(Cl)c(Cl)c2)C1
- IC50 [1]: 107 nM
- IC50 [2]: 73 nM

Reference: ChEMBL document CHEMBL1641425, “Discovery of 1-(3,4-dichlorophenyl)-N,N-dimethyl-1,2,3,4-tetrahydroquinolin-4-amine, a dual serotonin and dopamine reuptake inhibitor” (Bioorg Med Chem Lett, 2011)
